Values quoted from earlier work, collected in US20060134087A1, “ITI-D1 Kunitz domain mutants as hNE inhibitors” (Dyax Corp., priority 1988, published 2006).

By UniProt entry, the sequences of proteins in these tests, tags left out. Residues count along the entry.
UniProt P00772, 27-266: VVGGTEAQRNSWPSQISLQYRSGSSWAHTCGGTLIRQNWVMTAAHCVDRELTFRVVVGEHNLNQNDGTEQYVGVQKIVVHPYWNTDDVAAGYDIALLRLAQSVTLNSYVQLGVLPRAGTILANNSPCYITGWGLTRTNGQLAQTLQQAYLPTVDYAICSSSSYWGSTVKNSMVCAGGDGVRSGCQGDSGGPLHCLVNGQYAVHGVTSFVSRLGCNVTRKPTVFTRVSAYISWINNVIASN

Legend:
[1] = target: T1, Chymotrypsin (bovine pancreas) (Bos taurus, UniProt P00766); details: BPTI P1 derivatives; read-out: Dissociation constant (symbol); cited from earlier work
T1 construct: host or cells: bovine pancreas

[2] = target: T2, Elastase (porcine pancreas) (Sus scrofa, UniProt P00772); details: BPTI P1 derivatives; read-out: Dissociation constant (symbol); cited from earlier work
T2 construct: host or cells: porcine pancreas

[3] = target: T3, Trypsin (bovine pancreas) (Bos taurus, UniProt P00760); details: BPTI P1 derivatives; read-out: Dissociation constant (symbol); cited from earlier work
T3 construct: host or cells: bovine pancreas
T3 sequence (P00760 24-246): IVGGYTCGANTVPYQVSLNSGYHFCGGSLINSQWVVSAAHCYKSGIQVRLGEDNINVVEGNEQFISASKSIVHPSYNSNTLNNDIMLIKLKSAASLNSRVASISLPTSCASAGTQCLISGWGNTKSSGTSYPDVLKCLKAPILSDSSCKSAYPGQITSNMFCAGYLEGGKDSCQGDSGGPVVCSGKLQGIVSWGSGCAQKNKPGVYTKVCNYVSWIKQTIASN

[4] = target: T4, Elastase (human leukocytes) (Homo sapiens, UniProt P08246); details: BPTI P1 derivatives; read-out: Dissociation constant; cited from earlier work
T4 construct: host or cells: human leukocytes
T4 sequence (P08246 30-267): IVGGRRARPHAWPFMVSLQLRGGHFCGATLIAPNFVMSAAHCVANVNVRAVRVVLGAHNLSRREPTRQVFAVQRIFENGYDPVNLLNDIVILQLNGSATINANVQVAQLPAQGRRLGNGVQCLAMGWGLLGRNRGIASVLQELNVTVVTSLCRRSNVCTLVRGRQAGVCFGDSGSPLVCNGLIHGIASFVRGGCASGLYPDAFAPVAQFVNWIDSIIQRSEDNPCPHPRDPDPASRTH

glycine
Kd [1]: > 3.5 µM | Kd [2]: ≥ 3.5 µM | Kd [3]: > 3.5 µM | Kd [4]: 0.007 µM
